Assay [1] has as its target T1, pyrene actin (UniProt P68135 1-377, pyrene label). Nature of the assay: other fluorescence titration.
Assay [2] has as its target T1, pyrene actin. The assay is described as follows: stopped-flow fluorescence.

The values below come from article PMC3288355 (Current Biology, 2012).

The Kd is the free concentration of one partner at which half of the binding sites on the other are occupied at equilibrium, for simple one-to-one binding. High values mean weaker binding, low ones tighter binding. As usually defined, the koff is a measure of how fast the partners let go of each other. Higher therefore signals a short-lived complex. As usually defined, the kon is the rate constant with which the complex forms.

B1: GST-THDII (MYO3A tail homology domain II fused to GST) (domain or fragment)
chain: EEREPAANPYDFRRLLRKTSQRRRLVQQS
In the assay with pyrene actin [1], B1 came in with a Kd of 1200 ± 200 nM. In the assay with pyrene actin [2], the koff came to 54.8 ± 6.4 s⁻¹ and the kon was 4.66e+07 ± 2e+06 M⁻¹ s⁻¹.
